One assay deals with α1β3γ2 GABAA/BzR (Homo sapiens, UniProt P14867+P18507). The experiment in a line: Competition binding to HEK cell membranes, α1β3γ2. The conditions noted are these: read-out: Ki α1.
For the next assay, the target named is α2β3γ2 GABAA/BzR (Homo sapiens, UniProt P18507+P47869). Briefly: Competition binding to HEK cell membranes, α2β3γ2. The conditions noted are these: read-out: Ki α2.
The target of the next assay is α5β3γ2 GABAA/BzR (Homo sapiens, UniProt P18507+P31644). Briefly: Competition binding to HEK cell membranes, α5β3γ2. The conditions noted are these: read-out: Ki α5.
The target of the next assay is α6β3γ2 GABAA/BzR (Homo sapiens, UniProt P18507+Q16445). The experiment in a line: Competition binding to HEK cell membranes, α6β3γ2. The conditions noted are these: read-out: Ki α6.
A further assay deals with α3β3γ2 GABAA/BzR (Homo sapiens, UniProt P18507+P34903). Briefly: Competition binding to HEK cell membranes, α3β3γ2. The conditions noted are these: read-out: Ki α3.
Another assay deals with α4β3γ2 GABAA/BzR (Homo sapiens, UniProt P18507+P48169). The conditions noted are these: read-out: Ki α4.

Amino acid sequences for entries named in this document (tags omitted). Residues count along the entry.
UniProt P48169, 36-554 limits assumed: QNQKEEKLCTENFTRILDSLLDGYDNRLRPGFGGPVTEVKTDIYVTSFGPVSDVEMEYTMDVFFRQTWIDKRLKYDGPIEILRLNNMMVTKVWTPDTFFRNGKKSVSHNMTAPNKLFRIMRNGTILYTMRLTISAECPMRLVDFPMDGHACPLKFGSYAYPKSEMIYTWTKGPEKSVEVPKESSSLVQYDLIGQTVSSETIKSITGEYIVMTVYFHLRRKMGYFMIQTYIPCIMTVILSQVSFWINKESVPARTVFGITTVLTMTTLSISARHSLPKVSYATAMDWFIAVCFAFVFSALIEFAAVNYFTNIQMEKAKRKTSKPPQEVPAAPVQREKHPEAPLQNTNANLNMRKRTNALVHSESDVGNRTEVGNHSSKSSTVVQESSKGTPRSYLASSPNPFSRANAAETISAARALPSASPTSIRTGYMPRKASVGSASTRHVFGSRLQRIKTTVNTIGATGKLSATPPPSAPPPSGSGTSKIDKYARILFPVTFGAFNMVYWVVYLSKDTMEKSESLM

Each structure is given as a SMILES string.

Turning to `CC(C)(C)c1ccc2[nH]cc3c(=O)n(-c4ccc(Cl)cc4)nc-3c2c1`, the Ki at α1β3γ2 GABAA/BzR was 3.7 nM; on α2β3γ2 GABAA/BzR, 15 nM; at α5β3γ2 GABAA/BzR it was 144 nM; at α6β3γ2 GABAA/BzR it was 1000 nM; at α3β3γ2 GABAA/BzR, 12 nM; on α4β3γ2 GABAA/BzR, 1900 nM.

`C#Cc1ccc2c(c1)C(c1ccccc1)=NCC(=O)N2`: the Ki at α1β3γ2 GABAA/BzR turned out to be 66 nM; at α2β3γ2 GABAA/BzR it was 41 nM; at α5β3γ2 GABAA/BzR, 9 nM; on α6β3γ2 GABAA/BzR it was 3000 nM; at α3β3γ2 GABAA/BzR it was 43 nM; on α4β3γ2 GABAA/BzR, 3000 nM.

In the case of `CC(C)(C)OC(=O)c1ncn2c1CN=C(c1ccccc1)c1cc(Br)ccc1-2`, the Ki at α1β3γ2 GABAA/BzR was determined as 14 nM; at α2β3γ2 GABAA/BzR, 8.7 nM; on α5β3γ2 GABAA/BzR, 10 nM; on α6β3γ2 GABAA/BzR, 2000 nM; at α3β3γ2 GABAA/BzR, 18 nM; on α4β3γ2 GABAA/BzR, 1000 nM.

`CC=Cc1ccc2c(c1)C(=O)N(C)Cc1c(C(=O)OCC)ncn1-2` (single isomer, unassigned) [XHE-II-073B]: the Ki turned out to be 11 nM on α1β3γ2 GABAA/BzR; 17 nM at α2β3γ2 GABAA/BzR; 2.1 nM at α5β3γ2 GABAA/BzR; 269 nM on α6β3γ2 GABAA/BzR; 12 nM on α3β3γ2 GABAA/BzR; 33 nM at α4β3γ2 GABAA/BzR.
